Experiment [1] addresses T1, RIP3 (Homo sapiens, UniProt Q9Y572).
T1 construct: purchased DiscoverX (KINOMEscan service); host or cells: E. coli BL21-derived host (T7 phage) or HEK-293
The experiment is described as follows: KINOMEscan binding affinity assay, RIP3. Conditions: equilibrium dissociation constant.

Protein sequences, listed by entry. Tags and fused reporters are not part of them. Lines headed by an entry give the natural chain unless they say otherwise; changes in a name come on top.
UniProt Q9Y572: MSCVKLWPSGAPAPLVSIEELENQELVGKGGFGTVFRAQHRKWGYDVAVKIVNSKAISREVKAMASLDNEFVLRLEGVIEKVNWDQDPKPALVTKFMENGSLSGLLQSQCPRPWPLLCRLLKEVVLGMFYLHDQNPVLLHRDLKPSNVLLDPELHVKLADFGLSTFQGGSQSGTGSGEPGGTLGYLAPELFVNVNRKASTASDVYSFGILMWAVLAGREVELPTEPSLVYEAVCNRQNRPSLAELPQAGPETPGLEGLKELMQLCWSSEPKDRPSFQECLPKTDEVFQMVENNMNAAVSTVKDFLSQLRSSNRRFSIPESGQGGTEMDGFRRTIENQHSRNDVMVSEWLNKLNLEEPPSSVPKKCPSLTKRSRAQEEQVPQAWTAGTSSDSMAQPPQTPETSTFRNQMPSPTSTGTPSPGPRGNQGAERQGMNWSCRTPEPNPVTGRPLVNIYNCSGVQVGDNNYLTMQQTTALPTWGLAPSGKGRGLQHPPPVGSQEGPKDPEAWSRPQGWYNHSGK

The target in experiment [2] is T2, RIP1 (Homo sapiens, UniProt Q13546).
T2 construct: purchased DiscoverX (KINOMEscan service); host or cells: E. coli BL21-derived host (T7 phage) or HEK-293
T2 sequence (Q13546 1-671): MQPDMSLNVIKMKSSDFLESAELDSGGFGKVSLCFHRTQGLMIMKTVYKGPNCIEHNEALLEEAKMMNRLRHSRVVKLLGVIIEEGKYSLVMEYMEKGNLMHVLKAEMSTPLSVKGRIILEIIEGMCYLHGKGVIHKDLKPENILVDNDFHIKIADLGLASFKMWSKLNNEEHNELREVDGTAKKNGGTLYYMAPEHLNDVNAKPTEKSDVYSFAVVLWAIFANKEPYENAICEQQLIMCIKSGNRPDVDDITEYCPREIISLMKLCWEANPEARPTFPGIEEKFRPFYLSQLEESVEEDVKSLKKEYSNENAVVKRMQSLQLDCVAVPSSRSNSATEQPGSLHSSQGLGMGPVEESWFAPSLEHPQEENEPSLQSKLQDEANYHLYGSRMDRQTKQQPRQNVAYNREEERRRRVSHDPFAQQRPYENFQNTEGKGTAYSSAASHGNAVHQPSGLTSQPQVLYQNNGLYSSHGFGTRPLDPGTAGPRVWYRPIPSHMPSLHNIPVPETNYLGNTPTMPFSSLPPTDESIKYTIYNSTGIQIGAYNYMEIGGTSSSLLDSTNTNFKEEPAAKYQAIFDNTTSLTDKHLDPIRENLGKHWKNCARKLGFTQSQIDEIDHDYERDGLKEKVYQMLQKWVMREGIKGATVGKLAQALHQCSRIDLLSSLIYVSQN
As to the kind of experiment: KINOMEscan binding affinity assay, RIP1. Conditions: equilibrium dissociation constant.

The record followed here is patent US20230227428A1 (Anaxis Pharma Pty Ltd, priority 2020, published 2023).

Where only a bound is given, the exact number is not on record here.

Usually Kd stands for the constant that tells how readily two partners part at equilibrium. A lower Kd goes with a tighter complex. Take `Cc1cc(Nc2[nH]nc(-c3ccc(NC(=O)N4CCc5ccccc5C4)cc3)c2C(N)=O)cc(C)n1` [Compound 85, N-(4-(4-carbamoyl-5-((2,6-dimethylpyridin-4-yl)amino)-1H-pyrazol-3-yl)phenyl)-3,4-dihydroisoquinoline-2(1H)-carboxamide]: the Kd in experiment [1] and in experiment [2] was greater than 1000 nM throughout.
Take `NC(=O)c1c(-c2ccc(Nc3c(Nc4ccccc4)c(=O)c3=O)cc2)n[nH]c1Nc1ccccn1` [Compound 116, 3-(4-((3,4-dioxo-2-(phenylamino)cyclobut-1-en-1-yl)amino)phenyl)-5-(pyridin-2-ylamino)-1H-pyrazole-4-carboxamide]: the Kd in experiment [1] and in experiment [2] was greater than 1000 nM in each case.
On to `Cc1cc(Nc2[nH]nc(-c3ccc(NC(=O)N4CCC(c5ccccc5)C4)cc3)c2C(N)=O)cc(C)n1` (stereo not shown) [Compound 84, 5-((2,6-dimethylpyridin-4-yl)amino)-3-(4-(3-phenylpyrrolidine-1-carboxamido)phenyl)-1H-pyrazole-4-carboxamide], for which the Kd in experiment [1] and in experiment [2] was greater than 1000 nM throughout.
For `COc1cc(Nc2[nH]nc(-c3ccc(NC(=O)NCCc4ccccc4)cc3)c2C(N)=O)ccn1` [Compound 66, 5-[(2-methoxypyridin-4-yl)amino]-3-(4-{[(2-phenylethyl)carbamoyl]amino}phenyl)-1H-pyrazole-4-carboxamide], the Kd is greater than 1000 nM in experiment [1] and 100 to 1000 nM in experiment [2].
The like results for `COc1cc(Nc2[nH]nc(-c3ccc(NC(=O)N4CCC(c5ccccc5)C4)cc3)c2C(N)=O)ccn1` (stereo not shown) [Compound 50, 5-((2-methoxypyridin-4-yl)amino)-3-(4-(3-phenylpyrrolidine-1-carboxamido)phenyl)-1H-pyrazole-4-carboxamide] were, in that order, greater than 1000 nM and greater than 1000 nM.
The like results for `NC(=O)c1c(-c2ccc(NC(=O)N3CCC[C@H](c4ccc(F)cc4)C3)cc2)n[nH]c1Nc1cccc(C(F)(F)F)n1` [Compound 78, (R)-N-(4-(4-carbamoyl-5-((6-(trifluoromethyl)pyridin-2-yl)amino)-1H-pyrazol-3-yl)phenyl)-3-(4-fluorophenyl)piperidine-1-carboxamide] were, in that order, greater than 1000 nM and less than 100 nM.
The matching figures for `COc1cc(Nc2[nH]nc(-c3ccc(NC(=O)N(C)c4ccccc4)cc3)c2C(N)=O)ccn1` [Compound 57, 5-((2-methoxypyridin-4-yl)amino)-3-(4-(3-methyl-3-phenylureido)phenyl)-1H-pyrazole-4-carboxamide]: greater than 1000 nM and greater than 1000 nM.
As to `COc1cc(Nc2[nH]nc(-c3ccc(NC(=O)N4CC[C@H](c5ccccc5)C4)cc3)c2C(N)=O)ccn1` [Compound 63, (R)-5-((2-methoxypyridin-4-yl)amino)-3-(4-(3-phenylpyrrolidine-1-carboxamido)phenyl)-1H-pyrazole-4-carboxamide], the Kd in experiment [1] and in experiment [2] was greater than 1000 nM each time.
`NC(=O)c1c(-c2ccc(NC(=O)N3CCc4cc(C(F)(F)F)ccc4C3)cc2)n[nH]c1Nc1cccc(C(F)(F)F)n1` [Compound 76, N-(4-(4-carbamoyl-5-((6-(trifluoromethyl)pyridin-2-yl)amino)-1H-pyrazol-3-yl)phenyl)-6-(trifluoromethyl)-3,4-dihydroiso-quinoline-2(1H)-carboxamide]: the dissociation constant Kd in experiment [1] and in experiment [2] was greater than 1000 nM in each case.
As for `COCCOc1cc(Nc2[nH]nc(-c3ccc(NC(=O)CN(C)C)cc3)c2C(N)=O)ccn1` [Compound 19, 3-(4-(2-(dimethylamino)acetamido)phenyl)-5-((2-(2-methoxyethoxy)pyridin-4-yl)amino)-1H-pyrazole-4-carboxamide], the equilibrium dissociation constant (Kd) in experiment [1] and in experiment [2] was greater than 1000 nM each time.
As to `COc1cc(Nc2[nH]nc(-c3ccc(NC(=O)N4CCCc5ccccc54)cc3)c2C(N)=O)ccn1` [Compound 54, N-(4-(4-carbamoyl-5-((2-methoxypyridin-4-yl)amino)-1H-pyrazol-3-yl)phenyl)-3,4-dihydroquinoline-1(2H)-carboxamide], the Kd in experiment [1] and in experiment [2] was greater than 1000 nM in each case.
